{"source": "paper PMC5112578", "about": "“Zika antiviral chemotherapy: identification of drugs and promising starting points for drug discovery from an FDA-approved library” (F1000Research, 2016)", "test_system": "Zika virus (ZIKV)", "test": "ZIKV high content screening assay (infection ratio by immunofluorescence in Huh7)", "settings": "reference compound dose-response curve, ZIKV-infected Huh7, 72 h"}
{"substance": "IFNα2A: human recombinant Interferon α 2A used as reference compound", "values": [{"measurement": "EC50", "value": 2.07, "unit": "pM"}]}
